For one molecule, IC50 results are on record in ChEMBL document CHEMBL2176934, “Discovery of highly selective and orally active lysophosphatidic acid receptor-1 antagonists with potent activity on human lung fibroblasts” (J Med Chem, 2012).

Amino acid sequences for entries named in this document (tags omitted). A change or cut given only in a name is not applied to a line headed by its entry.
UniProt Q92633: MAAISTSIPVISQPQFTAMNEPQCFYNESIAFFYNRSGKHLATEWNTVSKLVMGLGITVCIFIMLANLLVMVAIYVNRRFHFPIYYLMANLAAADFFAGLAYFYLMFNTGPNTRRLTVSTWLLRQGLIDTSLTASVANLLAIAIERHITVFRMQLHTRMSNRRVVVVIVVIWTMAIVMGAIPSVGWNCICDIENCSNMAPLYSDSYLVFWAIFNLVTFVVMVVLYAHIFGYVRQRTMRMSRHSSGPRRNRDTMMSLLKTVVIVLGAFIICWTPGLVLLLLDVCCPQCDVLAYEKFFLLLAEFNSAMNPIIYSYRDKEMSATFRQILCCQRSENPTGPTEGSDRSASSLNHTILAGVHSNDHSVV

This assay addresses Lysophosphatidic acid receptor 1 (Homo sapiens, UniProt Q92633). In words: Antagonist activity at human recombinant LPA1 expressed in chem-1 cells assessed as inhibition of LPA-induced intracellular calcium mobilization incubated for 30 mins prior to LPA-challenge measured over 100 secs by FLIPR assay. Type of assay: functional, cell-based. An outline of the steps:
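Calcium-optimized Chem-1 cells stably expressing human LPA1 or LPA3 (parental line with ionomycin as counterscreen), seeded 10,000/well the day before. Calcium-4 dye in HBSS/20 mM HEPES/2.5 mM probenecid loaded 30 min at 37 °C; compound added, 30 min at room temperature in the dark; LPA (18:1) 1 μM final. Peak fluorescence read over 100 s; IC50 from 10-concentration 4-parameter logistic fit, mean of at least three runs.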
In general terms: A change in cytosolic calcium serves as a functional read-out for many receptors and channels.

On to `Cc1nnn(-c2ccc(-c3ccc(C4(C(=O)O)CC4)cc3)cc2)c1NC(=O)O[C@H](C)c1ccccc1F`, for which the IC50 (in general, the concentration that inhibits the measured activity by half) is 0.0345 µM.
